# Data from patent US20050276762A1, “Topical compositions containing 5'-adenosine-diphosphate ribose” (priority 2004, published 2005).
# Chains of the proteins cited; added tags and fusions are not shown.
# UniProt P09874, whole entry: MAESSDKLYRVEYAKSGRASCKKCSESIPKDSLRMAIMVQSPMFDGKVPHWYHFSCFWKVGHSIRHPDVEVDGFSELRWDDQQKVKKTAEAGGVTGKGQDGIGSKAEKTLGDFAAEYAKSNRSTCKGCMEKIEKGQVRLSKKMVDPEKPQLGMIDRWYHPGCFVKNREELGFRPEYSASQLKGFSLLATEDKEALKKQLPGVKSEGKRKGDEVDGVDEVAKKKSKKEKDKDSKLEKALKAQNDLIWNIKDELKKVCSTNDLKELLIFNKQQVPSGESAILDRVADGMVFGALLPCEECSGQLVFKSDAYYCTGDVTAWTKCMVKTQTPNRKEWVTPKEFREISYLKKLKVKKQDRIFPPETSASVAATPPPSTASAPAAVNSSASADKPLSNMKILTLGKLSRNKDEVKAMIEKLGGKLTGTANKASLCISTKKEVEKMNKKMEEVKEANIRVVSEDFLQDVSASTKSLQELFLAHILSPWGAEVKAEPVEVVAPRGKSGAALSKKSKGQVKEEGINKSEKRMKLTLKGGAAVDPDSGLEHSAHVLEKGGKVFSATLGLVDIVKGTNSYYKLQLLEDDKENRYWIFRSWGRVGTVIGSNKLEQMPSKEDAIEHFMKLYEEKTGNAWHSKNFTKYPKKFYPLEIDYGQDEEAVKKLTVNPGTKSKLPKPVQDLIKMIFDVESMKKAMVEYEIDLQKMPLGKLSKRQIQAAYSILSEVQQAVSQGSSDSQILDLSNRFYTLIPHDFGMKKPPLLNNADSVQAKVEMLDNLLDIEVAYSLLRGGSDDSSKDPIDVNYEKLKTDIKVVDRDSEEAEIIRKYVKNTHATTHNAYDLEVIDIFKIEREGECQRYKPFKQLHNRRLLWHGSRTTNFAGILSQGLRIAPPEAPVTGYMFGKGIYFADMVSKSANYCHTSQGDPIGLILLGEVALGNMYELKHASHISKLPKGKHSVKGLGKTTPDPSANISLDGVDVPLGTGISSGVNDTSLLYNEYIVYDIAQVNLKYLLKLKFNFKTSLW
# This is a selection: effects in other tests are not listed, and their absence says nothing.
# Key:
# [1] = biological target: poly (ADP-ribose) polymerase (PARP) (Homo sapiens, UniProt P09874); test: PARP assay (in vitro PARP inhibition); type: biochemical; conditions: concentration ranging from 4 to 10 mM; FIG. 2
# Experimental: 1. […] 2. Cover the plate with an adhesive plate sealer and incubate for 2 hours at room temperature (or overnight at 2-8° C.). 1. […] After the last wash, remove any remaining PBS by decanting. Invert the plate and blot it against clean paper toweling. Note, at this time plates can be air dried and stored covered at room temperature for later use. 2. Block the wells by adding 50 μL of Strep Diluent to each well. 3. Cover the plate with an adhesive plate sealer and incubate for 1 hour at room temperature (or overnight at 2-8° C.). […] PARP will autoribosylate in the presence of NAD. 1. […] After the last wash, remove any remaining PBS by decanting. Invert the plate and blot it against clean paper toweling. 2. […] 3. Add inhibitor of interest. The final reaction volume is 50 μL/well. […] Enzyme is added last. • For 24 wells: Make for 20=2×0.5 units=10 units • 20 wells×5 μL=100 μL 10 μL enzyme+90 μl of 1× PARP buffer […] 5. Incubate the plate for 30 minutes at room temperature. The extent of ribosylation is time dependant; therefore this step can be extended if desired. 1. […] After the last wash, remove any remaining PBS by decanting. Invert the plate and blot it against clean paper toweling. 2. Dilute Strep-HRP • Dilute 1:500 • For 20 wells=1,100 μL Strep diluent+2.2 μL Strep-HRP • Add 50 μL of diluted Strep-HRP to each well. 3. Incubate for 30 minutes at 37° C. […]
# [2] = tested on: human immortalized keratinocytes HaCaT cells; test: Protection of keratinocytes from UVB exposure (adenylate kinase release); conditions: FIG. 3
# Experimental: (§1) In this third experiment, human immortalized keratinocytes HaCaT cells are assessed for the effect of ADP-ribose on UV-induced cell death and its probable mode of action. Here we report that ADP-ribose is able to protect skin cells from exposure to UVA, UVB, and their combination (sunlight).
# (§2) The spontaneously immortalized human keratinocyte cell line HaCaT contains p53 mutation in both alleles. The cells are cultured in DMEM (Dulbeco's Minimal Essential Medium, Life Technologies) with 10% fetal bovine serum at 37° C. and 5% CO2. For irradiation, cells are cultured in 100 mm petri dishes to subconfluence (exponential growth), washed with 0.1% EDTA/PBS, and irradiated uncovered as a monolayer.
# Treatment 1: 100 μg/ml ADP-R for exposures of 0, 1, 2, and 4 KJ/m^2 Kodacel filtered UV-B measured with UVB probe. Light source Westinghouse FS-20 bulbs.
# (§3) Triplicate plates are harvested after 16 hours of incubation and supernatant pooled for adenylate kinase release activity.
# [3] = tested on: human immortalized keratinocytes HaCaT cells; test: Protection of keratinocytes from UVA exposure (adenylate kinase release); conditions: 100 μg/ml; UVA at 300 KJ/m^2; FIG. 4
# Experimental: as §1, §2
# Treatment 2: 100 μg/ml ADP-R for exposures of 0, 30, 100 and 300 KJ/m^2 Kodacel filtered UV-A measured with UVA probe. Lightsource Cosmolux UVA bulbs.
# as §3
# [4] = tested on: human immortalized keratinocytes HaCaT cells; test: Protection of keratinocytes from UVA+UVB (solar simulator) exposure (adenylate kinase release); conditions: 100 μg/ml, FIG. 5
# Experimental: as §1, §2
# Treatment 3: 100 μg/ml ADP-R for exposures of 0, 150, 450, 600 and 900 J/m^2 Kodacel filtered solar simulator light measured with a UVB probe. Light source LS1000-8R-AM/LS1000 solar simulator (Solar Light Company) with a 1 kW xenon lamp. This simulator exposure also provides 450, 1350, 1800, and 2700 J/m^2 UVA, respectively.
# as §3
# Human A549 cells = test: H2O2 mediated cytotoxicity (cytoprotection assay, adenylate kinase release); conditions: 1 mM H2O2, FIG. 1
substance,measurement,setting,value
5′-adenosine diphosphate ribose,inhibition of PARP activity,[1],40-80%
same,UVB exposure up to which keratinocytes are protected,[2]; 100 μg/ml,up to 2 KJ/m^2
same,protection of cells (inhibition of cytotoxicity induced by UVB exposure),"[2]; 100 ug/ml, UVB",40-60%
same,HaCaT cells protected from toxicity due to UVA exposure,[3],25%
same,"inhibition of cytotoxicity, UVA+UVB (solar radiation)",[4]; 600 J/m^2 UVB+1800 J/m^2 UVA,60-70%
same,UVB exposure (solar simulator) up to which significant protection was observed,"[4]; UVB, with 1800 J/m^2 UVA",≤ 600 J/m^2
same,protection from H2O2 cytotoxicity,Human A549 cells; 50 μg/ml,55-60%
same,cells protected from the cytotoxic effect of H2O2,Human A549 cells; either 25 or 50 μg/ml,30-55%
